Key:
[1] = system: 67NR tumor; test: Tumor efficacy study in a 67NR syngraft; details: BALB/c, 5 mg/kg intraperitoneally once daily for 14 days
[2] = molecular target: human Ether-a-go-go (hERG) potassium channels (Homo sapiens, UniProt Q12809); test: hERG inhibition assay (ion channel electrophysiology); details: at concentrations that it inhibits the MPC

Chains of the proteins cited; added tags and fusions are not shown. Lines headed by an entry give the natural chain unless they say otherwise; changes in a name come on top.
UniProt Q12809: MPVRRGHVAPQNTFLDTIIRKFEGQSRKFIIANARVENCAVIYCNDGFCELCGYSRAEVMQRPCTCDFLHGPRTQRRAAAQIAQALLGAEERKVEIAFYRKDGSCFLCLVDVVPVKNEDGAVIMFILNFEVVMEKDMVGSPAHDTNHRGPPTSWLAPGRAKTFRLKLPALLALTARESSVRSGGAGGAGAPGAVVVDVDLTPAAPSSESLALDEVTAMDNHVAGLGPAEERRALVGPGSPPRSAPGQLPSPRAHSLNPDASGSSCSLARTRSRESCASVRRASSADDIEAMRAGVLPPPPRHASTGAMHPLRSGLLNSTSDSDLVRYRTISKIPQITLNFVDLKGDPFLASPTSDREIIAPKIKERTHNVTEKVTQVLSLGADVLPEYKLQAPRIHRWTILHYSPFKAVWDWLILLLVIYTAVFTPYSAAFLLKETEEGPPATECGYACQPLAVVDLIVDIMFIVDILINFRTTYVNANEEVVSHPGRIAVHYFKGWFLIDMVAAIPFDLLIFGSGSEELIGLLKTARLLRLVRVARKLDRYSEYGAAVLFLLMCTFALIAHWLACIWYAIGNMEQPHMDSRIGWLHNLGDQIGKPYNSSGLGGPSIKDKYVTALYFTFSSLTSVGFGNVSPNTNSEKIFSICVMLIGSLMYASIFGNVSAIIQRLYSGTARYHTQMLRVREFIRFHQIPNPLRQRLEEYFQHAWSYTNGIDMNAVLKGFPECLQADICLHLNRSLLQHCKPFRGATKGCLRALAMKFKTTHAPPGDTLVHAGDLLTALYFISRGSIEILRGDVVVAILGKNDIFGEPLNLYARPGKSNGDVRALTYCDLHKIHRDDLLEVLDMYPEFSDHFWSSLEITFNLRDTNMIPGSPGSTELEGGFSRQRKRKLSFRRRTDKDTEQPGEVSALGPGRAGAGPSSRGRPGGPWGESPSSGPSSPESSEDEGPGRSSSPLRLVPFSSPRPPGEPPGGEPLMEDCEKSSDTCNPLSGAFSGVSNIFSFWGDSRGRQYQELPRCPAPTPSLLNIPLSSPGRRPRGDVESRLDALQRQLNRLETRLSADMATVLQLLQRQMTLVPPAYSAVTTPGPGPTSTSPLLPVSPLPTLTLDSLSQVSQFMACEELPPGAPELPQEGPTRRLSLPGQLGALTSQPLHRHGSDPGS

Compound: CN(Cc1ccc(C(F)(F)F)cc1)c1ccc2cc(C(=O)O)c(=O)oc2c1.NC(CO)(CO)CO [C5, 1,3-dihydroxy-2-(hydroxymethyl)propan-2-aminium 7-(methyl(4-(trifluoromethyl)benzyl)amino)-2-oxo-2H-chromene-3-carboxylate]
- reduction in tumor mass compared with vehicle [1]: ~71%
- reduction in tumor volume compared with vehicle [1]: ~79%
- hERG channel function inhibition [2]: did not inhibit

Reference: PMC12355554, “Development of novel mitochondrial pyruvate carrier inhibitors for breast cancer treatment” (The Journal of Biological Chemistry, 2025)
